Source: article PMC5397429

Biological target: Rabbit IgG (rabbit)
Test: binding of I-125-labelled protein-coated gold nanoparticles to Sepharose affinity beads; Protein A on 15 nm gold labelled with I-125 mixed with Sepharose beads coupled to rabbit IgG or to Protein A (control); percent bound read from radioactivity and from loss of OD520 from the supernatant

## Protein A (from UniProt P38507 37-477) (natural protein)
  % I-125 binding: 92%
  % OD520 binding: 82%
